# From BindingDB's records for doi:10.1007/s00210-004-0951-4 (Vernalis Research, 2004)
# Amino acid sequences for entries named in this document (tags omitted). A change or cut given only in a name is not applied to a line headed by its entry.
# UniProt P28223, whole entry: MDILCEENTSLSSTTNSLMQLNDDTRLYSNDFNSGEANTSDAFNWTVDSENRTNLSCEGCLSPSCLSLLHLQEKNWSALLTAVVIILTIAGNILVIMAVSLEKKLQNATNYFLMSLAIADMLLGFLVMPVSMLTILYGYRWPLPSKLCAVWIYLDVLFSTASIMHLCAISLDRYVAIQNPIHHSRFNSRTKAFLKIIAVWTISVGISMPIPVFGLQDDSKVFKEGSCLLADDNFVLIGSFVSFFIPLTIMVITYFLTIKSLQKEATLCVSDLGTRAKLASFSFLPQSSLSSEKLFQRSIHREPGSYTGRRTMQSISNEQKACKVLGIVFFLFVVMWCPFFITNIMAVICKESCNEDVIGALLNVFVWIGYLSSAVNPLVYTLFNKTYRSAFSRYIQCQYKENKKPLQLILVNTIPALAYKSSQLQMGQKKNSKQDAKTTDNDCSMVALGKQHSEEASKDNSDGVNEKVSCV
# UniProt P41595, whole entry: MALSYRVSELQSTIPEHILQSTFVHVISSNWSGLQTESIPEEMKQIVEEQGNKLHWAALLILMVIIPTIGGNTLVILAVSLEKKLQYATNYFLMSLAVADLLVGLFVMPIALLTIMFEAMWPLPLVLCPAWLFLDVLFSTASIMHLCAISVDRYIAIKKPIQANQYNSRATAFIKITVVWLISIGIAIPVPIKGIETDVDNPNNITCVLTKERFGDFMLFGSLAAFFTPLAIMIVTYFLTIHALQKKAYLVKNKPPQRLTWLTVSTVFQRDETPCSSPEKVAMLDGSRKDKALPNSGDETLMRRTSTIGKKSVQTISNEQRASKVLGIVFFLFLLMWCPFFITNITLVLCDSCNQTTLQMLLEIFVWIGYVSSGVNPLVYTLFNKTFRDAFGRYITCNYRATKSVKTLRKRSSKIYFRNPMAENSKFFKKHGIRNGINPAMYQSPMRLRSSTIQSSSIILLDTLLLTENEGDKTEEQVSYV
# UniProt P28335: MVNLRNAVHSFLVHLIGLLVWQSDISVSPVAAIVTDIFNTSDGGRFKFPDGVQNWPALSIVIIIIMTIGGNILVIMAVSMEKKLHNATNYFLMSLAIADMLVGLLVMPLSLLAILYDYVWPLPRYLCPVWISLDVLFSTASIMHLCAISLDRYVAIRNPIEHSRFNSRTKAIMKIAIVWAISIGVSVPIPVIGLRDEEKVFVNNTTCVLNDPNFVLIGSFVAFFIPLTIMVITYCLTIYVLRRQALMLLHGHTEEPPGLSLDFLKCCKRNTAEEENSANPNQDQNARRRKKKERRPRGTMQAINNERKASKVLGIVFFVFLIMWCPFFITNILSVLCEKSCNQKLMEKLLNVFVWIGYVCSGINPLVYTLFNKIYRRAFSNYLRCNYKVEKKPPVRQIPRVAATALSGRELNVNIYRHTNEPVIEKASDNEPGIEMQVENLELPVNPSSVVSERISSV
# Experiments:
# [1] = molecular target: 5-hydroxytryptamine receptor 2A (Homo sapiens, UniProt P28223)
# [2] = molecular target: 5-hydroxytryptamine receptor 2B (Homo sapiens, UniProt P41595)
# [3] = molecular target: 5-hydroxytryptamine receptor 2C (Homo sapiens, UniProt P28335)
Compound,pKi [1],pKi [2],pKi [3]
CCCN1CCCC2Cc3[nH]ncc3CC21 (stereo unspecified) [NSC_55397],5.48,–,–
CC(N)Cc1c[nH]c2ccc(OCc3cccs3)cc12 (stereo unspecified) [NSC_5311036],–,7.33,–
Clc1cccc(N2CCNCC2)c1 [mCPP],7.26,7.39,7.85
"CSc1ccc2c(c1)C(N1CCN(C)CC1)Cc1ccccc1S2 (stereo unspecified) [methanesulfonic acid;1-methyl-4-(3-methylsulfanyl-5,6-dihydrobenzo[b][1]benzothiepin-5-yl)piperazine]",–,8.68,–

# pKi: −log10 of the molar value.
